The results in this text go back to patent US6337206B1 (priority 1997, dated 2002).

Sequences of proteins named here, by UniProt entry; tags and fusion partners are left off. A change or cut given only in a name is not applied to a line headed by its entry.
UniProt P10683: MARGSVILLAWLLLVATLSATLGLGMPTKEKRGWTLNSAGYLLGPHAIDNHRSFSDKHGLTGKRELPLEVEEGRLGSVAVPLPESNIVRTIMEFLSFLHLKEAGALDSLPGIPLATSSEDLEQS

The target of this assay is T1, human GALR1 (human, UniProt P47211 1-349).
T1 chain: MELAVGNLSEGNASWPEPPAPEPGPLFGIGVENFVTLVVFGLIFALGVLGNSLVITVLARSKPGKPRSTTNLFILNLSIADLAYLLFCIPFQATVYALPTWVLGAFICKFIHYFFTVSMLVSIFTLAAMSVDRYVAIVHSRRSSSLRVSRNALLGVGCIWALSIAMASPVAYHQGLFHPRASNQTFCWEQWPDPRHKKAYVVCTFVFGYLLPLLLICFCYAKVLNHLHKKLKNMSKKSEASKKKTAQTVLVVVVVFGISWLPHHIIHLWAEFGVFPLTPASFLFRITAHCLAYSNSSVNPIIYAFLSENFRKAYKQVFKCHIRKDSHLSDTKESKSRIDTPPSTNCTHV
Nature of the assay: competition.

As a reminder, the IC50 is the concentration that gives 50% inhibition. Read a low IC50 as inhibition by little substance. Turning to WTLNSAGYLLGPHAIDNHRSFSDKHGLT (peptide, UniProt P10683 34-61, looked up, range 2-29; also called rGAL(2-29)) [rat Gal (2-29)], the IC50 was 17 nM. As for TLNSAGYLLGPHAIDNHRSFSDKHGLT [rat Gal (3-29)], the IC50 is over 1000 nM. With GWTLNSAGYLLGPHAIDNHRSFSDKHGLT [rat galanin] the figure was 0.1 nM.
